1 compound from ChEMBL document CHEMBL1134008, “Cis- and trans-N-benzyl-octahydrobenzo[g]quinolines. Adrenergic and dopaminergic activity studies” (Bioorg Med Chem Lett, 2001) can be followed below.

Amino acid sequences for entries named in this document (tags omitted).
UniProt P61169, whole entry: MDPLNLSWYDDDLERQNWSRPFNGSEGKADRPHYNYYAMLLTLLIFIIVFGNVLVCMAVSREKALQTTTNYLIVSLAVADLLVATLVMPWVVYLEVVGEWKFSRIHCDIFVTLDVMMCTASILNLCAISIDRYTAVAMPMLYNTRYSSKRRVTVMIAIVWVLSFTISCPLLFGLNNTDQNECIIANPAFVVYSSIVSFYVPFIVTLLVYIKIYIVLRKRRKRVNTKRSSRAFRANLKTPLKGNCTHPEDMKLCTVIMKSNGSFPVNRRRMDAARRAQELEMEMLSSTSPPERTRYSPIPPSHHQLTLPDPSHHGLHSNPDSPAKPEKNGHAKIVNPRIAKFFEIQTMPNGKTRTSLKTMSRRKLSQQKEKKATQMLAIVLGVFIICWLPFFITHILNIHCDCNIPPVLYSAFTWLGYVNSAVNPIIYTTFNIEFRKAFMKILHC

The assay has as its target D(2) dopamine receptor (Rattus norvegicus, UniProt P61169). Kind of assay: Inhibition of binding of [3H]spiroperidol to Dopamine receptor D2 in rat striatal membranes. The assay is classed as cell membranes, Membrane.

One may read the IC50 as the midpoint of a concentration-inhibition curve. As to `CN1CCc2cccc3c2[C@H]1Cc1ccc(O)c(O)c1-3` [APOMORPHINE], the IC50 worked out at 220 nM.
